Experimental data as given in the supplement of paper PMC5908809.

How the values were obtained:
DERL-7 (IL-2 2.5 ng/mL) [1] = assay: relative IC50 (inflection point of fitted viability curve, relative to fitted max inhibition); higher = less sensitive; settings: 72 h
Description: (§1)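 Drug sensitivity and resistance testing: 5 concentrations over a 10,000-fold range, 72 h at 37 °C, viability by CellTiter-Glo normalised to DMSO and benzethonium chloride controls. IC50 is the inflection point of a logistic fit (min fixed at 0, max fitted), so it is relative to the fitted maximal inhibition. Kept only where fitted max inhibition is at least 50%.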

YT (IL-2 2.5 ng/mL) [2] = assay: as above; settings: 72 h
Description: as §1

SNK-6 (IL-2 2.5 ng/mL) [3] = assay: as above; settings: 72 h
Description: as §1

KAI3 (IL-2 2.5 ng/mL) [4] = assay: as above; settings: 72 h
Description: as §1

[5] = test system: normal NK cells expanded with K562-aAPC; assay: drug sensitivity score (DSS) (DSS units); higher = more sensitive; extreme values may be limits of the assay; settings: 72 h; IL-2 2.5 ng/mL
Description: (§2)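 Drug sensitivity and resistance testing on K562-aAPC-expanded normal NK cells: 5 concentrations (10-fold steps over a 10,000-fold range), 72 h at 37 °C, viability by CellTiter-Glo normalised to DMSO and benzethonium chloride controls; DSS from the fitted curve.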

NK-92 (IL-2 2.5 ng/mL) [6] = assay: as above; settings: 72 h
NK-YS (IL-2 2.5 ng/mL) [7] = assay: as above; settings: 72 h
DERL-7 (IL-2 2.5 ng/mL) [8] = assay: as above; settings: 72 h
YT (IL-2 2.5 ng/mL) [9] = assay: as above; settings: 72 h
NKL (IL-2 2.5 ng/mL) [10] = assay: as above; settings: 72 h
SNK-6 (IL-2 2.5 ng/mL) [11] = assay: as above; settings: 72 h
[12] = test system: normal primary NK cells, pool 2 (3 donors) (IL-2 2.5 ng/mL); assay: as above; settings: 72 h
[13] = test system: normal primary NK cells, pool 1 (3 donors) (IL-2 2.5 ng/mL); assay: as above; settings: 72 h
KHYG-1 (IL-2 2.5 ng/mL) [14] = assay: as above; settings: 72 h
[15] = test system: normal primary NK cells, pool 3 (3 donors) (IL-2 2.5 ng/mL); assay: as above; settings: 72 h
IMC-1 (IL-2 20 ng/mL) [16] = assay: as above; settings: 72 h
[17] = test system: normal primary NK cells, pool 1 (3 donors), resting (IL-2 0 ng/mL); assay: as above; settings: 72 h
KAI3 (IL-2 2.5 ng/mL) [18] = assay: as above; settings: 72 h
[19] = test system: normal NK cells expanded with K562-aAPC; assay: percent inhibition of viability; higher = more inhibition; settings: 72 h, IL-2 2.5 ng/mL
Description: as §2

NK-92 (IL-2 2.5 ng/mL) [20] = assay: as above; settings: 72 h
NK-YS (IL-2 2.5 ng/mL) [21] = assay: as above; settings: 72 h
DERL-7 (IL-2 2.5 ng/mL) [22] = assay: as above; settings: 72 h
YT (IL-2 2.5 ng/mL) [23] = assay: as above; settings: 72 h
NKL (IL-2 2.5 ng/mL) [24] = assay: as above; settings: 72 h
SNK-6 (IL-2 2.5 ng/mL) [25] = assay: as above; settings: 72 h
[26] = test system: normal primary NK cells, pool 2 (3 donors) (IL-2 2.5 ng/mL); assay: as above; settings: 72 h
[27] = test system: normal primary NK cells, pool 1 (3 donors) (IL-2 2.5 ng/mL); assay: as above; settings: 72 h
KHYG-1 (IL-2 2.5 ng/mL) [28] = assay: as above; settings: 72 h
[29] = test system: normal primary NK cells, pool 3 (3 donors) (IL-2 2.5 ng/mL); assay: as above; settings: 72 h
IMC-1 (IL-2 20 ng/mL) [30] = assay: as above; settings: 72 h
[31] = test system: normal primary NK cells, pool 1 (3 donors), resting (IL-2 0 ng/mL); assay: as above; settings: 72 h
KAI3 (IL-2 2.5 ng/mL) [32] = assay: as above; settings: 72 h

NCc1ccc(OCCCc2sc(-c3ccc4c(c3)/C(=N/Nc3nc5ccccc5s3)CCC4)nc2C(=O)O)cc1 [WEHI-539]
Settings	relative IC50 [nM]
DERL-7 (IL-2 2.5 ng/mL) [1]	> 2500
KAI3 (IL-2 2.5 ng/mL) [4]	124
SNK-6 (IL-2 2.5 ng/mL) [3]	83.3
YT (IL-2 2.5 ng/mL) [2]	70.2

NCc1ccc(OCCCc2sc(-c3ccc4c(c3)/C(=N/Nc3nc5ccccc5s3)CCC4)nc2C(=O)O)cc1 [WEHI-539] (max concentration tested 2500 nM)
Settings	drug sensitivity score
DERL-7 (IL-2 2.5 ng/mL) [8]	0.89
IMC-1 (IL-2 20 ng/mL) [16]	2.11
KAI3 (IL-2 2.5 ng/mL) [18]	14.8
KHYG-1 (IL-2 2.5 ng/mL) [14]	1.94
NK-92 (IL-2 2.5 ng/mL) [6]	2.55
NK-YS (IL-2 2.5 ng/mL) [7]	0
NKL (IL-2 2.5 ng/mL) [10]	2.2
SNK-6 (IL-2 2.5 ng/mL) [11]	15.7
YT (IL-2 2.5 ng/mL) [9]	13.2
[5]	0.83
[12]	4.17
[13]	0
[15]	0.44
[17]	0

percent inhibition of viability [%]
Settings	0.25 nM	2.5 nM	25 nM	250 nM	2500 nM
DERL-7 (IL-2 2.5 ng/mL) [22]	-1.03	-0.51	-3.83	-4.69	-10.2
IMC-1 (IL-2 20 ng/mL) [30]	-3.28	-0.97	1.6	14.1	23
KAI3 (IL-2 2.5 ng/mL) [32]	-1.85	4.39	14.3	67.9	102
KHYG-1 (IL-2 2.5 ng/mL) [28]	-5.3	-0.64	-2.33	9.02	23.4
NK-92 (IL-2 2.5 ng/mL) [20]	-5.07	-4.42	-11.9	16.2	23.8
NK-YS (IL-2 2.5 ng/mL) [21]	0.35	-3.08	-2.14	6.38	5.63
NKL (IL-2 2.5 ng/mL) [24]	13	1.4	7.39	11.9	27.7
SNK-6 (IL-2 2.5 ng/mL) [25]	-5.1	4.12	22.4	69.1	94
YT (IL-2 2.5 ng/mL) [23]	5.47	1.83	8.88	64.8	70.8
[19]	6.75	1.83	6.37	11.6	16.9
[26]	-8.42	-8.85	2.42	22.6	33.6
[27]	-2.1	-1.63	-4.82	7.31	-1.82
[29]	-11.2	-12	-2.42	5.98	13.1
[31]	-29.9	-2.37	-4.67	19.2	-15.6
